The text below walks through data of PubChem BioAssay AID504326 (The Scripps Research Institute Molecular Screening Center, 2011).

Chains of the proteins cited; added tags and fusions are not shown.
UniProt P35372, whole entry, looked up: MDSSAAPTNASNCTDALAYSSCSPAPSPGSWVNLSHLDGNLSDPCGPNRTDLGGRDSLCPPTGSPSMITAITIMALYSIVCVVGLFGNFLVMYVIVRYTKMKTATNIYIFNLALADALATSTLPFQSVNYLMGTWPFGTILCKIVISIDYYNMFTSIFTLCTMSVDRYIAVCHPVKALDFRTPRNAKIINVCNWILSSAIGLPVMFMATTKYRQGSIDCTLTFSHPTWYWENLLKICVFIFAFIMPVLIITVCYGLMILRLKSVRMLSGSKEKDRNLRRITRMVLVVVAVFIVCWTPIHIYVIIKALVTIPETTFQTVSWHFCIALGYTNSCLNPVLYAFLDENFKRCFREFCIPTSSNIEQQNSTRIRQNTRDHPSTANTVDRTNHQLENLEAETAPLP
UniProt P41143, whole entry, looked up: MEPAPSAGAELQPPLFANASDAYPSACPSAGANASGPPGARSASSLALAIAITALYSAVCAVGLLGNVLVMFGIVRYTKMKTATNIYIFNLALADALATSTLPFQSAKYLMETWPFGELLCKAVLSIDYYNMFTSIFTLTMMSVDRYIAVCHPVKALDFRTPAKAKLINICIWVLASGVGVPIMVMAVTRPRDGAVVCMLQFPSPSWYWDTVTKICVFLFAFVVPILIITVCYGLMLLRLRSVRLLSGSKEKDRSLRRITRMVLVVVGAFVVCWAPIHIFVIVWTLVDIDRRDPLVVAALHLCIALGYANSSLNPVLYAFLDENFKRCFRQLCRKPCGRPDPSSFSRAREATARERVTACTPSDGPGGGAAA

Only a part is listed here, and it is no random draw. Activity calls are given as the source filed them. Cut-off read from the data, not from the text of the source: active = activation above about 18%; inactive = the rest.

For this test, the target named is Mu-type opioid receptor (Homo sapiens) + Delta-type opioid receptor (Homo sapiens) (UniProt P35372+P41143). As to the kind of experiment: agonists of OPRM1-OPRD1 heterodimerization, primary screen, cell-based, luminescence (AID 504326).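 Note: 0% = vehicle-treated cells and 100% = reference agonist.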 Particulars: cells, at 9.3 µM, hits give high values.
In the case of `CC(O)c1nc2ccccc2n1CC(=O)N1CCN(c2ccccc2)CC1` (stereo unspecified), the activation is inactive: 1.19%.
